Data taken from patent US7071206B2, “Agents for treating neurodegenerative disorders” (Medivation, Inc., priority 1995, dated 2006).

Tested on: NMDA receptor
Test: Anti-NMDA activity: prevention of convulsions and death caused by NMDA injected into the lateral ventricle of the brain
Assay type: in vivo
Conditions: mice; i.p. 40 minutes before NMDA 0.1 μg into the lateral ventricle; probit analysis
Protocol: The experiment was conducted in white non-inbred male mice of 20–24 g of weight. A solution of the test agent in 0.2 ml of 5% aqueous dimethylsulfoxide was injected intraperitoneally 40 minutes before the injection of NMDA into the lateral vehicle of the brain. For the mice that had been prepared beforehand for the experiment a skin flap on the head of each mouse was removed under ether anestesia and a hole was bored in the skull by a fine drill. NMDA (0.1 μg) in a volume of 1.4 μl was injected with a microsyringe. The microsyringe needle was immersed to a depth of 2.5 mm. After the operation, the wound was treated with a 2% novocaine solution. […] The accuracy of NMDA injection was monitored by injection of methylene blue. Two to 4 hours after the operation, the mice were used for a pharmacological experiment.
The animals inoculated with a saline solution were used as control.
Each dose of the agent was tested in a croup of 6–8 animals. The ED50 value (the dose of the agent preventing the development of convulsions and the death of 50% of the animals) was determined by a probit-analysis method (Litchfild J. T., Wicoxon F. J.—Pharmacol. Exp. Therap., 1949, v. 96, p. 99–114).

Compound: Cc1ccc2c(c1)[C@H]1CN(C)CC[C@H]1N2 (racemic) [No. 4, cis(±)2,8-dimethyl-2,3,4,4a,5,9b-hexahydro-1H-pyrido[4,3-b]indole]
- ED50 (dose preventing the development of convulsions and the death of 50% of the animals): 31 ± 7 mg/kg
